Laboratory results published in PMC2812487.
Where a chain is given by its changes, count along the chain named. Names may count otherwise.

Legend:
Test in all cases: flow cytometry on cells (Ig-fusion protein staining)
Settings in all cases: chain shown with the change
[1] = biological target: T1, HLA-G M76V+Q79R+T80K on 721.221 cells, P17693
T1 chain: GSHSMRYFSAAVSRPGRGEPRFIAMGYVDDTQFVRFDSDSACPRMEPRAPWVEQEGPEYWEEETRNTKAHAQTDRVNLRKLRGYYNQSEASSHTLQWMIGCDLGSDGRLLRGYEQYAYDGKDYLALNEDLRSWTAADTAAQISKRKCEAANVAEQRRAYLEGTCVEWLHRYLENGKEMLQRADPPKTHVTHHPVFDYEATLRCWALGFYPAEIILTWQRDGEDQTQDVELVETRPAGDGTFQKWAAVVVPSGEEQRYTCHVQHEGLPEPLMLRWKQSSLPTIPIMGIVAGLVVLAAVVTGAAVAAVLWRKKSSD

[2] = biological target: T2, HLA-G M76V+Q79R+T80N on 721.221 cells, P17693
T2 chain: T1 chain with K80N

[3] = biological target: HLA-G M76V+Q79R on 721.221 cells, P17693
[4] = biological target: HLA-G, wild type, on 721.221 cells, P17693
[5] = biological target: HLA-G T80K on 721.221 cells, P17693
[6] = biological target: HLA-G N151R on 721.221 cells, P17693
[7] = biological target: HLA-G T80N on 721.221 cells, P17693
[8] = biological target: HLA-G M76V on 721.221 cells, P17693

B1: m4; m6 KIR2DS2: KYK/KFK; HLA-G: M76V; HLA-G: Q79R; HLA-G: T80K (protein)
chain: HEGVHRKPSLLAHPGPLVKSEETVILQCWSDVRFEHFLLHREGKFKDTLHLIGEHHDGVSKANFSIGPMMQDLAGTYRCYGSVTHSPYQLSAPSDPLDIVITGLYEKPSLSAQPGPTVLAGESVTLSCSSRSSYDMYHLSREGEAHERRFSAGPKVNGTFQADFPLGPATHGGTYRCFGSFRDSPYEWSNSSDPLLVSVTGNPSNSWPSPTEPSSKTGNPRHLH
Binder B1 has a response [1] of 3.1 MFI.

B2: m4; m6 KIR2DS2: KYK/KFK; HLA-G: M76V; HLA-G: Q79R; HLA-G: T80N (protein)
chain: B1 chain
Work on B2 yielded a response [2] of 362 MFI.

B3: m4; m6 KIR2DS2: KYK/KFK; HLA-G: M76V; HLA-G: Q79R (protein)
chain: B1 chain
In the case of B3, the response [3] is reported as 2.3 MFI.

B4: KIR2DS2-Ig, P43631 KYK/KFK (protein)
chain: B1 chain
Binder B4 has a response [4] of 2.8 MFI.

B5: m4; m6 KIR2DS2: KYK/KFK; HLA-G: T80K (protein)
chain: B1 chain
In the case of B5, the response [5] is reported as 2.1 MFI.

B6: m4; m6 KIR2DS2: KYK/KFK; HLA-G: N151R (protein)
chain: B1 chain
In the case of B6, the response [6] is reported as 2.4 MFI.

B7: m4; m6 KIR2DS2: KYK/KFK; HLA-G: T80N (protein)
chain: B1 chain
B7 was tested, and the response [7] was 2.09 MFI.

B8: m4; m6 KIR2DS2: KYK/KFK; HLA-G: M76V (protein)
chain: B1 chain
B8 showed a response [8] of 3.1 MFI.
